# Measurements taken from PubChem BioAssay AID2629 (Broad Institute, 2010).
# Protein sequences, listed by entry. Tags and fused reporters are not part of them.
# UniProt Q9QR71, whole entry: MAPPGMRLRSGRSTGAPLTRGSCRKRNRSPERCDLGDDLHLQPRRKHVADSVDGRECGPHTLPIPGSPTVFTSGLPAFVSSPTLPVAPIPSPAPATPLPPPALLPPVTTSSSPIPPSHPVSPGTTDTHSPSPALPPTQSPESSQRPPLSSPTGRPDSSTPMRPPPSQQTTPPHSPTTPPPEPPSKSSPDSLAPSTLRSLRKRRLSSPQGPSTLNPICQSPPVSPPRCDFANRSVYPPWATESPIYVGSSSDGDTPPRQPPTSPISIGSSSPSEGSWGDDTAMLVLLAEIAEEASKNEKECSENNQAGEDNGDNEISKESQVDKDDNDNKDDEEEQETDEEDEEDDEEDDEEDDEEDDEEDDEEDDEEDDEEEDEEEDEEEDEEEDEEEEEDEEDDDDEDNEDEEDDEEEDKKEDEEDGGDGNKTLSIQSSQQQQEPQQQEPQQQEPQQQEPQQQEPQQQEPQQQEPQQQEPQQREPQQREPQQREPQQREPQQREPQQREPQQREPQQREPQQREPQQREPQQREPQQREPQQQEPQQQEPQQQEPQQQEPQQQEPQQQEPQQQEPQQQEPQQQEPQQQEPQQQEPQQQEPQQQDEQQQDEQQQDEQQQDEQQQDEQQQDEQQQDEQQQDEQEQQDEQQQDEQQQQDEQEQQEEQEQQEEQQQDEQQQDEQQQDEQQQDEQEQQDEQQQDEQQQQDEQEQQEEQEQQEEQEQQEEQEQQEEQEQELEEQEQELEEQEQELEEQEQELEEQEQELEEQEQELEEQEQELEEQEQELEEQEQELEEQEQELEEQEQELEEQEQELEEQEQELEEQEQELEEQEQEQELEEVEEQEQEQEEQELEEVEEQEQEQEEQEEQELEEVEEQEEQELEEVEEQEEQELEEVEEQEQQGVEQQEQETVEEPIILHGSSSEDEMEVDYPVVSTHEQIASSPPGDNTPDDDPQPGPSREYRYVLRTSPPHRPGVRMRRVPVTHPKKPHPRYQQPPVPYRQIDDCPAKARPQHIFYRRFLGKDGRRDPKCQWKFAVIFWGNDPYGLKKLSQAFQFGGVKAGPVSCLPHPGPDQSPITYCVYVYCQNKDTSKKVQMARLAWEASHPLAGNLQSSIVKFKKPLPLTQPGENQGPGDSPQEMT
# The list shows a part of the results, in another mix than the full data. Some results for these compounds are left out of this collection, so the calls shown say nothing about other tests. Activity calls are given as the source filed them. Cut-off read from the data, not from the text of the source: active = inhibition mostly above about 10% (no sharp cut-off); inactive = mostly below about 6.7%.
# Target: Protein LANA1 (Human herpesvirus 8 type P (isolate GK18)) (UniProt Q9QR71)
# Assay: blockers of LANA interaction with H2A/H2B – biochemical, FP readout, HTS, primary screen (AID 2629)
# Conditions: cell-free LANA-H2A/H2B peptide, fluorescence polarization; hits give high values; concentration not given here
row,SMILES,inhibition
1,CN1[C@@H]2CC[C@H]1CC(OC(=O)C(O)(c1ccccc1)c1ccccc1)C2 (some centres undefined),inactive: 2.1%
2,O=C(NCC1(N2CCCCC2)CCCCC1)c1cc([N+](=O)[O-])ccc1Cl,inactive: 6.45%
3,Cc1ccc(C(=O)NCC2(N3CCCCC3)CCCCC2)cc1,inactive: -4.83%
4,CC(C)N1C(=O)CC2(CCN(CCOC(=O)C(O)(c3ccccc3)c3ccccc3)CC2)C1=O,inactive: -4.82%
5,COc1cc(SC)ccc1C(=O)NCC1(N(C)C)CCCCC1,inactive: -0.889%
6,CCN(CC)CC(C)C(C)OC(=O)C(O)(c1ccccc1)c1ccccc1 (centres undefined),inactive: 4.04%
7,CN(C)C1CCCC1OC(=O)C(O)(c1ccccc1)c1ccccc1 (centres undefined),inactive: -7.65%
8,CN(C)c1ccc(C(=O)NCC2(N(C)C)CCCCC2)cc1,inactive: 1.39%
9,Cc1ccccc1C(=O)NCC1(N2CCCCC2)CCCCC1,inactive: -1.03%
10,O=C(NCC1(N2CCCCC2)CCCCC1)c1cccc(Br)c1,inactive: 3.02%
11,Cc1cc(C(=O)NCC2(N3CCCCC3)CCCCC2)ccc1[N+](=O)[O-],inactive: -7.9%
12,CCN1CCCC(OC(=O)C2(O)c3ccccc3C=Cc3ccccc32)C1 (centres undefined),inactive: -7%
13,COc1ccc(C(=O)NCC2(N(C)C)CCCCC2)cc1,inactive: 2.03%
14,O=C(NCC1(N2CCCCC2)CCCCC1)c1cc(F)c(F)cc1Cl,inactive: 3.23%
15,C=CCN1CCN(CCOC(=O)C(O)(c2ccccc2)c2ccccc2)CC1,inactive: -1.31%
16,COc1cc(C(=O)NCC2(N(C)C)CCCCC2)c([N+](=O)[O-])cc1OC,inactive: 2.04%
17,CN(C)C1(CNC(=O)c2ccc(Br)cc2)CCCCC1,inactive: 1.17%
18,O=C(NCC1(N2CCCCC2)CCCCC1)c1cccc(Cl)c1,inactive: 6.35%
19,COc1ccc(Cl)cc1C(=O)NCC1(N(C)C)CCCCC1,inactive: 8.21%
20,COc1cccc(C(=O)NCC2(N3CCCCC3)CCCCC2)c1,inactive: 3.7%
21,O=C(OC1CN2CCC1CC2)C(CO)(c1ccccc1)c1ccccc1 (centres undefined),inactive: -5.73%
22,CN(C)c1cccc(C(=O)NCC2(N(C)C)CCCCC2)c1,inactive: 0.302%
23,CC(C)Oc1ccc(C(=O)NCC2(N(C)C)CCCCC2)cc1,inactive: 4.41%
24,COc1ccc(Br)c(C(=O)NCC2(N3CCCCC3)CCCCC2)c1,inactive: 2.23%
